Data on one molecule can be found in ChEMBL document CHEMBL2390866, “Novel pyrimidoazepine analogs as serotonin 5-HT(2A) and 5-HT(2C) receptor ligands for the treatment of obesity” (Eur J Med Chem, 2013).

Chains of the proteins cited; added tags and fusions are not shown. Lines headed by an entry give the natural chain unless they say otherwise; changes in a name come on top.
UniProt P28223, whole entry: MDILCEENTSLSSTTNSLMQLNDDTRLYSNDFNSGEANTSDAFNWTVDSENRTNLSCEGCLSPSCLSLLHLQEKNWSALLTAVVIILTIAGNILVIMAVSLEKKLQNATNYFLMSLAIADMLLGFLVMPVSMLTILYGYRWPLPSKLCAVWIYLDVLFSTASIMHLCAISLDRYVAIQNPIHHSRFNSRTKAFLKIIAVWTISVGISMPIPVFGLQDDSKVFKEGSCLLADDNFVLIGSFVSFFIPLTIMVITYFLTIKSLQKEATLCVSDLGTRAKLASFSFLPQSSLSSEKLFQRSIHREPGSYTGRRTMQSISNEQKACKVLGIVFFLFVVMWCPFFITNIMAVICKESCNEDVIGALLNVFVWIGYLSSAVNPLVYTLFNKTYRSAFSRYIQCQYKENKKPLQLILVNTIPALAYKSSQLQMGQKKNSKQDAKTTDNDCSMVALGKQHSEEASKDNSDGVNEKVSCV
UniProt P28335: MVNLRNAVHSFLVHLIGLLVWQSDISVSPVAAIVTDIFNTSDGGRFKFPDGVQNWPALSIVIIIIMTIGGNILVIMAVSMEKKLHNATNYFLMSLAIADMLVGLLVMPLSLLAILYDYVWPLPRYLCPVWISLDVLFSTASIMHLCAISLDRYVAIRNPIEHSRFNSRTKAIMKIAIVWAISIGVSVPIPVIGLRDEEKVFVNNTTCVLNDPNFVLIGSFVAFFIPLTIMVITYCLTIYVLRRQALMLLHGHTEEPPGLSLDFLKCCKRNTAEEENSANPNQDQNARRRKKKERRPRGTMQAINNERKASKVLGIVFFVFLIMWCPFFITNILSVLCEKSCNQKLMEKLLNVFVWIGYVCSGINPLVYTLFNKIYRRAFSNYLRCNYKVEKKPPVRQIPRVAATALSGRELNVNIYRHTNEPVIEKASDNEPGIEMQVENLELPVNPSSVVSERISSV

pEC50: −log10 of the molar value.

Assay [1] addresses 5-hydroxytryptamine receptor 2A (Homo sapiens, UniProt P28223). The assay can be described thus: Agonist activity at serotonin-activated human recombinant 5HT-2A receptor expressed in HEK293 cells assessed as increase in intracellular calcium level after 5 mins measured for 1 min by fluorescence assay. The format is functional, cell-based.
The target in assay [2] is 5-hydroxytryptamine receptor 2C (Homo sapiens, UniProt P28335). The experiment in a line: Agonist activity at serotonin-activated human recombinant 5HT-2C receptor expressed in HEK293 cells assessed as increase in intracellular calcium level after 5 mins measured for 1 min by fluorescence assay. Type of assay: functional, cell-based.

Consider `Clc1cccc(N2CCNCC2)c1` [CHLOROPHENYLPIPERAZINE], for which the pEC50 is 8.14 in assay [1] and 8.09 in assay [2].
